Test results: patent US10435642B2, “Ionic liquids containing symmetric quaternary phosphonium cations and phosphorus-containing anions, and their use as lubricant additives” (UT-Battelle, LLC, priority 2014, dated 2019)

Substance	Oil-solubility in Chevron SAE 10 W base oil (Chevron SAE 10 W base oil) [wt %]	Oil-solubility in Shell GTL 4 cSt base oil (Shell GTL 4 cSt base oil) [wt %]	Oil-solubility in ExxonMobil PAO 4 cSt base oil (ExxonMobil PAO 4 cSt base oil) [wt %]	Oil solubility (Table 2)
tetraoctylphosphonium bis(2-ethylhexyl)phosphate [[P8888][DEHP]]	>50	>50	–	–
tributyltetradecylphosphonium bis(2-ethylhexyl)phosphate [[P44414][DEHP]]	–	–	<1	less than 1%
